Like-named read-outs stand apart in the source and are kept apart here.
Legend:
NFSA tumor [1] = tested on: NFSA tumor
NFSA tumor [2] = conditions: COX-2 inhibitor plus radiation, TCD50 assay

Structure (SMILES): NS(=O)(=O)c1ccc(-n2nc(C(F)(F)F)cc2-c2ccc(Cl)cc2)cc1
- mice died of unknown causes (NFSA tumor [1]; COX-2 inhibitor only group): Two of eight
- mice died of unknown causes (NFSA tumor [1]; COX-2 inhibitor plus 40 Gy group): Two of eight
- mice died of unknown causes (NFSA tumor [2]): Five of 60

Reference: patent US6649645B1 (Pharmacia Corporation, priority 1998, dated 2003)
